Legend:
[1] = Solubility testing in gas bubbler/sparger with continuous 9 mol % CO2 in N2; conditions: 9 mol % CO2, ambient conditions
[2] = Preliminary solubility testing of CO2-loaded amino/amino-sulfonic acid solutions (precipitation temperature); type: physicochemical; conditions: ambient pressure, test range −10° C. to 40° C.
Method: Preliminary solubility testing was carried out with various amino and amino-sulfonic acids and blends thereof to determine the propensity for solids precipitation. These blends were loaded with CO2 under representative process conditions: a CO2 loading from 0.35 to 0.45 mol CO2/mol alkalinity at ambient pressure and a temperature from −10° C. to 40° C. CO2 loading was achieved by addition of potassium bicarbonate instead of some potassium hydroxide as the neutralizing agent. The loading (in mol CO2 per mol alkalinity) was determined from the following equation: […]

- precipitation when 9 mol % CO2 continuously injected (in words) [1]: showed signs of precipitation
- Precipitation Temperature ([2]; Loading 0.35 mol CO2/mol alk.): 13 °C
- Precipitation Temperature ([2]; Loading 0.40 mol CO2/mol alk.): 31 °C
- Precipitation Temperature ([2]; Loading 0.45 mol CO2/mol alk.): 37 °C
Compound: NCCS(=O)(=O)O [3 m TAU, taurine]

Reference: patent US20250196055A1, “PROCESS FOR CAPTURING CO2 FROM A MOBILE SOURCE USING AN AMINO ACID SOLVENT” (SAUDI ARABIAN OIL COMPANY, priority 2021, published 2025)
